Like-named read-outs stand apart in the source and are kept apart here.
What was measured:
[1] = 5 mg in 2 ml water containing 5 mg benzethenium chloride
[2] = 5 mg in 2 ml water

vanillin smell (release by hydrolysis) ([1]; after 1 hour under ambient condition): strong vanillin smell was detected
vanillin smell (release by hydrolysis) ([2]; after 8 hours under ambient condition): strong vanillin smell was detected
vanillin smell (release by hydrolysis) ([2]; right after suspending by vortexing): No vanillin smell was detected
Substance: trigonelline ester of vanillin
vanillin smell (release by hydrolysis) ([1]; immediately): No vanillin smell was immediately detected

Reference: US9119780B2, “Triggerable compositions for two-stage, controlled release of proactive chemistry” (Kimberly-Clark Worldwide, Inc., priority 2013, dated 2015)
